The chains behind the UniProt entries cited, without tags or fusion partners.
UniProt P21554, whole entry: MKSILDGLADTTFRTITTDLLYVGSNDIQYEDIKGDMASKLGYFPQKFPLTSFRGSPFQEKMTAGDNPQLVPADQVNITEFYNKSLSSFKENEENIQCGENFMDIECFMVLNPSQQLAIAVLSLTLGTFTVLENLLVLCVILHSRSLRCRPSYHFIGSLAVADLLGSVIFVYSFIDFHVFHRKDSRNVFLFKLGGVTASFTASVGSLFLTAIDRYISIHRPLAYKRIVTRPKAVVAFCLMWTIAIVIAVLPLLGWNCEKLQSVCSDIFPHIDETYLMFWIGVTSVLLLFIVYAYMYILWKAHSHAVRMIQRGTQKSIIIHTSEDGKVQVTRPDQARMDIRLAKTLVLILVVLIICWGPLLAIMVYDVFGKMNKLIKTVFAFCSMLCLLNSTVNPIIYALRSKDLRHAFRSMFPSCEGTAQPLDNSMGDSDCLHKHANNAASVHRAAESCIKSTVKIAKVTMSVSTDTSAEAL
UniProt P34972, whole entry: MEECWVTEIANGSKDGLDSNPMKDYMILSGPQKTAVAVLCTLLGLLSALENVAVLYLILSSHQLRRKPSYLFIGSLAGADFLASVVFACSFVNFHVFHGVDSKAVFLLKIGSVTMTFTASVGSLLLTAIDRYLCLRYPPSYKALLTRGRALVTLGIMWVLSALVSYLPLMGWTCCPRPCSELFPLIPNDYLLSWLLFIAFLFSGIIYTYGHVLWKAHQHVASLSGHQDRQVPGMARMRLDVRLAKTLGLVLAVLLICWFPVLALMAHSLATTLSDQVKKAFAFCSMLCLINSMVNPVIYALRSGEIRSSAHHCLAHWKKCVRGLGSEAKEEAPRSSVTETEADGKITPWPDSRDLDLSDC

In ChEMBL document CHEMBL1156630, “Investigations on the 4-quinolone-3-carboxylic acid motif. 2. Synthesis and structure-activity relationship of potent and selective cannabinoid-2 receptor agonists endowed with analgesic activity in vivo” (J Med Chem, 2008):

Assays:
Cannabinoid receptor 1 = Cannabinoid receptor 1 (Homo sapiens, UniProt P21554); format: cell-based, HEK293
Cannabinoid receptor 2 = Cannabinoid receptor 2 (Homo sapiens, UniProt P34972); experiment: Displacement of [3H]CP-55940 from human CB2 receptor expressed in HEK293 cells; format: cell-based
Homo sapiens = species: Homo sapiens; experiment: Selectivity for human CB2 receptor over human CB1 receptor

## CCCCCn1cc(C(=O)NC23CC4CC(CC(C4)C2)C3)c(=O)c2cc(C(C)C)ccc21
Cannabinoid receptor 1
  Ki: 1220 nM
Cannabinoid receptor 2
  Ki: 6.3 nM
Homo sapiens
  Ratio Ki: 194
